GIV-Gai inh = GIV-Galpha-i interaction inhibition; AID 1224905; 210,000 tested, 0.42% active; Galpha-i3/FITC-GIV peptide fluorescence polarization, 90 min; stronger effect = lower value; scaled: aluminum fluoride 0%, vehicle 100%; percent of control (FP), % (concentration not given with the values);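 active = replicate mean at 85% of control or lower, very high polarization wells dropped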;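 also: wells of about 15 µL received 100 nL stock; the first replicate is given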
HCMV UL50-53 inh = inhibitors of HCMV UL50-UL53 interaction, biochemical, HTRF; HCMV UL50-UL53 nuclear egress complex (human cytomegalovirus); normalized percent inhibition; inhibition, % (no concentration beside the values); 190,000 compounds, 0.15% hits; AID 1918969, 2023; in the data active = inhibition above about 27%, passing the limit was not always enough
A number is an active result; – = inactive; · = no result given. Compounds with a hit are over-represented: about 0.46% of the library has one in this group of screens.

SMILES	GIV-Gai inh	HCMV UL50-53 inh
Cc1ccc2c(c1)N(C(=O)/C=C/c1ccccc1)C(C)(C)CC2(C)c1ccccc1 (configuration not stated)	–	·
CCOc1ccc2nc(N3CCC(C(=O)NCc4ccccn4)CC3)sc2c1	–	–
CCOc1ccc2nc(NC(=O)Cc3csc(NC(=O)c4cc(OC)cc(OC)c4)n3)sc2c1	–	–
CCc1cccc2c1=NC(=O)C=2c1c(C)[nH]n(-c2ccccc2)c1=O	–	–
Cc1[nH]n(-c2ccccc2)c(=O)c1C1=c2ccccc2=NC1=O	·	67.7
OCn1c(=S)sc2ccccc21	·	–
Cn1nc(NC(=O)Cn2ccc(-c3ccsc3)n2)c2ccccc21	·	–
CCN(CC)c1ccc2nc3c(=O)n(C)c(=O)n(C)c3nc2c1	-25.7	–
CCN(CC)c1ccc2nc3c(nc2c1)C(=O)c1ccccc1C3=O	–	63.6
CCN(CC)c1ccc(C=C2C(=O)c3ccccc3C2=O)c(OC)c1	-18.2	·
O=C1c2ccccc2-c2nc3ccccc3nc21	–	–
CCC(=O)Nc1ccc2nc3c(=O)n(C)c(=O)n(C)c3nc2c1	–	–
CCOc1cccc(N2C(=O)/C(=C\c3ccc(N(CC)CC)cc3OC)C(=O)NC2=S)c1	–	–
O=C(NCCCN1CCCC1=O)c1ccc2ccnc(N3CCN(c4ccc(Cl)cc4)CC3)c2c1	–	·
O=c1ccc2cc(S(=O)(=O)N3CCCC3)ccc2o1	–	–
CCCN1C(=O)/C(=C/c2ccc(-c3ccc(Br)cc3)o2)NC1=S	-83.0	–
CCCN1C(=O)/C(=C/c2ccc(-c3cccc(C(F)(F)F)c3)o2)NC1=S	–	–
O=C(c1ccc(Cl)cc1)N1CCc2c([nH]c3ccccc23)C1c1ccc2c(c1)OCO2 (configuration not stated)	–	·
COc1ccc(NC(=O)C(C)n2c(=O)cc(C)c3c(C)nn(-c4ccccc4)c32)cc1OC (configuration not stated)	–	–
COc1cccc(N2CCN(C(=O)Cn3c4ccccc4c(=O)c4cc(C)ccc43)CC2)c1	–	–
O=C(O)c1ccc(-c2ccc(/C=C3\Sc4ccccc4C3=O)o2)cc1	-10.5	·
COC(=O)c1cccc(-c2ccc(/C=C3\Sc4ccccc4C3=O)o2)c1	–	–
O=C(O)c1cccc(-c2ccc(/C=C3\Sc4ccccc4C3=O)o2)c1	-72.6	–
CCOC(=O)c1ccc(-c2ccc(/C=C3\Sc4ccccc4C3=O)o2)cc1	–	–
N#CC1=C(N)Oc2n[nH]c(-c3ccc(Br)cc3)c2C1c1ccc(N2CCOCC2)c([N+](=O)[O-])c1 (configuration not stated)	–	·
SMILES	GIV-Gai inh	HCMV UL50-53 inh
CC(C)(C)OC(=O)NN1C(=O)c2ccccc2C1=O	–	–
CCOC(=O)C1=C(C)OC(N)=C(C#N)C1c1ccc(O)cc1 (configuration not stated)	–	–
CC(=O)OCc1c(C)ccc(C2C(C#N)=C(N)OC(N)=C2C#N)c1C	-1.1	·
CCN(CCC(=O)N1CCNCC1)C(=O)c1ccc(Cl)cc1	–	–
COc1ccc(C2Nc3ccccc3O2)cc1 (configuration not stated)	–	–
Cc1nc(-c2cc(NC(=O)c3ccc(C(C)(C)C)cc3)c(C)s2)no1	–	·
O=C1C2=C(NC3=C(C(=O)c4ccccc43)C23C(=O)Nc2ccccc23)c2ccccc21	–	–
CC1(C)C(=O)NC2=C1C(=O)C(=O)c1ccccc12	·	107.3
Cc1ccc(C(=O)[C@@H]2[C@@H](c3ccccc3Cl)C(C#N)(C#N)[C@H]3C=Cc4ccccc4N23)cc1	–	·
C=CCOc1ccc(/C=C/C(=O)N2CCN(S(=O)(=O)c3cccs3)CC2)cc1	·	–
CC(C)c1ccc(S(=O)(=O)N2CCc3nc(N4CCCCC4)ncc3C2)cc1	–	–
Cc1ccc(N/C(SCc2cccc([N+](=O)[O-])c2)=C(/C#N)C(N)=O)cc1C	–	·
COc1ccccc1C(=O)On1c(C)nc2ccccc2c1=O	–	31.0
COc1cc(OC)cc(-c2nc3ccccc3c(=O)n2OC(=O)c2cc(Cl)ccc2OC)c1	–	–
O=C(CC1CCCC1)OCc1cccs1	·	–
COc1ccccc1/C=C1\N=C(c2ccc(OC)c(OC)c2)N(c2ccc(Cl)cc2)C1=O	76.7	·
COc1ccccc1/C=C1\N=C(c2ccc(OC)c(OC)c2)N(c2ccc(Cl)c(Cl)c2)C1=O	–	·
COc1ccc(/C=C2\N=C(c3ccc(Cl)cc3)N(c3cc(Cl)ccc3C)C2=O)cc1OC	–	·
COc1cccc(C2=N/C(=C\c3ccccc3OC)C(=O)N2c2ccc(C)c(F)c2)c1	60.7	·
COc1cccc(C2=N/C(=C/c3ccccc3OC)C(=O)N2c2ccc(OC)c(OC)c2)c1	–	·
COc1ccc(/C=C2\N=C(c3ccc(Cl)cc3)N(c3ccccc3Br)C2=O)cc1OC	66.7	·
O=S(=O)(NC1CC1)c1cc(-c2noc(C3CCC3)n2)cs1	–	·
O=C(NC(/C=C/c1ccccc1)c1cc(Cl)c2cccnc2c1O)c1cccnc1 (configuration not stated)	–	·
CC(C)N1CCc2c(sc(N)c2C(N)=O)C1	-67.2	·
CC(C)N1CCc2c(sc(NC(=O)C3=COCCO3)c2C(N)=O)C1	–	–
SMILES	GIV-Gai inh	HCMV UL50-53 inh
O=C(NCc1ccc2c(c1)CCCN2C(=O)C1CCC1)c1cc(F)cc(F)c1	–	·
O=C(O)C1CCN(C(=O)C2CCC2)CC1	–	–
O=c1[nH]nc(SCc2cccc3ccccc23)c(=O)[nH]1	84.9	–
O=c1[nH]nc(SCc2ccccc2)c(=O)[nH]1	–	–
C=CCN1C(=O)CC(C(=O)Nc2ccc(OC)cc2)SC1=Nc1ccc(Cl)cc1 (configuration not stated)	–	·
CCCCCCCNC(=O)C1CCN(c2ncc(-c3cccc(C)c3)cn2)CC1	–	·
O=c1[nH]c2c(s1)C=Nc1cc3ccccc3cc1N2	59.2	–
O=C1CC(c2cccc(Br)c2)c2ccc3ccccc3c2N1 (configuration not stated)	–	·
O=c1c2ccccc2nc2c(-c3nc(-c4ccc5c(c4)OCO5)no3)cccn12	57.9	–
O=c1c2ccccc2nc2c(-c3nc(-c4ccccc4)no3)cccn12	–	–
CN(C)c1ccc(/C=C/C(=O)/C=C/c2ccc3c(c2)OCO3)cc1	-63.7	·
COC(=O)/C=C/c1ccc2c(c1)OCO2	·	–
O=C(O)/C=C/c1ccco1	–	–
CN(C)c1ccc(/C=C/C(=O)/C=C/c2ccco2)cc1	6.8	–
CCN=c1scc(-c2ccc3c(c2)NC(=O)CO3)n1/N=C/c1cccs1	·	–
COC(=O)c1ccc(=O)c2nc3/c(=C/O)c(O)cc(=O)c3[nH]c12	–	49.6
COC(=O)c1ccc(N)cc1O	–	–
CNS(=O)(=O)c1cn(CC(=O)Nc2cccc(C)c2C)cc1S(=O)(=O)NC	–	–
CC(=O)C1=NN(c2cccc(Cl)c2C)C2(S1)SC(c1ccccc1)(c1ccccc1)c1ccccc12 (configuration not stated)	–	·
COc1ccc(/C=C/c2nc(Cn3cnc(S(=O)(=O)N4CCCCC4)c3)no2)cc1OC	–	·
COc1cccc(C(=O)Oc2cccc(-n3cnnn3)c2)c1	–	–
Cc1cccn2c(=O)c(/C=C3\SC(=S)N(Cc4ccccc4)C3=O)c(NCc3ccco3)nc12	–	·
C=CCNc1nc2c(C)cccn2c(=O)c1/C=C1\SC(=S)NC1=O	-41.9	·
CC(=O)N1CCC(N(CCCN2CCC(C)CC2)C(=O)Nc2ccc(Br)c(C)c2)CC1	–	–
